Target: HLA-A*0201 molecule on T2 cells (human (endogenous in T2) | human)
Test: flow cytometry on cells; T2 binding assay: T2 cells (1 x 10^6 cells/ml) with peptide (50 μg/ml) and 3 μg/ml human β2-M in serum-free RPMI 1640, 18 h, 37°C; surface HLA-A2 stained with BB7.2 PE-Cyanine7; fluorescence index (FI); FI > 1.5 classed as high affinity

HBcAg 18-27 peptide
FI (fluorescence index): 1.21

Reference: PMC6286779, “HLA-A2-Restricted Epitopes Identified from MTA1 Could Elicit Antigen-Specific Cytotoxic T Lymphocyte Response” (Journal of Immunology Research, 2018)
